Binding of CDR-mutated scFvs to a peptide of the spike HR2 region

Reference: Li et al. 2023, doi:10.1038/s41467-023-39022-2. File: FLAb, binding data.

Antigen: PDVDLGDISGINAS, a 14-residue peptide of the SARS-CoV-2 spike HR2 region.

Ab-14 is the parent antibody, in scFv form: VH, then a (GGGGS)3 linker, then VL. The light chain is unchanged in all variants.
VH: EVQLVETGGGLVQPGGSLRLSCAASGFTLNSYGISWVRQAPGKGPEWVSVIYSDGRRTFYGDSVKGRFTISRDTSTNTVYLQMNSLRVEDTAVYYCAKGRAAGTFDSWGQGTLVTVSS
VL: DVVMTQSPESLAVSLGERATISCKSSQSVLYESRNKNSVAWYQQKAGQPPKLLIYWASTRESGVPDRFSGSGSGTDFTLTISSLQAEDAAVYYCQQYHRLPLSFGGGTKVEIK

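The parent was found by panning a naive human phage display library on the peptide. These sequences belong to a second round, designed from the earlier measurements on random variants of the parent. Their group label is 14H_GP_HC (GP: Gaussian process model; HC: hill climbing; a sequence that several methods proposed may carry one label only). In AlphaSeq, yeast of one mating type display the scFv and yeast of the other type display the target. Pairs that bind mate more often; barcode pairs of the diploids are counted by sequencing. A regression on co-assayed BCL2-family reference pairs converts the normalised counts of each replicate to an apparent Kd. Each pool was mated in six replicate cultures.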

Variants are written as CDR1, CDR2 and CDR3 of the heavy chain (limits as in the source). Parent: GFTLNSYGIS, VIYSDGRRTFYGDSVK, GRAAGTFDS.
Numbers give log10(Kd / nM), so 0 is 1 nM and 3 is 1 µM. Smaller is tighter.
An entry "nd" has no value in the source: the pair was not observed among the diploids in that replicate. This suggests poor binding but is not conclusive.
The authors averaged sequences with at least three values out of six and counted those with two or fewer as poor binders.

| # | CDR-H1 | CDR-H2 | CDR-H3 | replicates, log10 nM | empty controls |
|---|---|---|---|---|---|
| 1 | GFTLMSYGIS | VIYSDGRRTFYMDSVK | GQLAGTFDS | nd / nd / nd / nd / 2.25 / 1.72 | 0/18 |
| 2 | GFTLNEYGIS | VIYSDGRRTFYGESVK | GRAAVTFDV | nd / nd / nd / nd / nd / nd | 1/18 (1.54) |
| 3 | KFDLNSYGIS | VIYSDGRRTFYDDSVK | GQTAGTFDS | 0.79 / 1.48 / 1.24 / 0.94 / 0.52 / 2.04 | 2/18 (1.63) |
| 4 | GFTLNSYGIS | VIYSDGRRTFYDDSVK | GQVAGKFDS | nd / nd / nd / nd / nd / nd | 1/18 (3.01) |
| 5 | GFTLNEYGIS | VIYSDGRRTFYGDSVK | GRFAGTFDQ | nd / nd / nd / nd / nd / nd | 0/18 |
| 6 | GFLLNDYGIS | VIYSDGRRTYYGDSVK | GRAAGTFDS | 1.49 / 1.40 / 0.83 / nd / 1.48 / 0.51 | 0/18 |
| 7 | GFDLNSYGIS | VIYSDGRRTFYHDSVK | GRAAGCFNS | nd / nd / nd / nd / nd / nd | 0/18 |
| 8 | GFTLNSYGIS | VIYADGRRTFYGDSVK | GRQAGTFKI | nd / nd / nd / nd / nd / nd | 0/18 |
| 9 | GFSLNEYGIS | VIYSDGRRTFYGDSVK | GFAAGTFDR | 1.25 / 0.71 / 1.11 / 0.79 / 0.84 / 1.01 | 0/18 |
| 10 | GFELNQYGIS | VIYSDGRRTFYSDSVK | GRLAGTFDT | -0.05 / -0.25 / -0.19 / -0.56 / -0.15 / -0.09 | 1/18 (2.17) |
| 11 | GFTLNEYGIS | VIYSDGRRTFYDDSVK | GRAAVTFDQ | nd / nd / nd / nd / nd / nd | 0/18 |
| 12 | GFTLNEYGIS | VIYSDGRRTFYGDSVK | GRAAGKFMT | 0.19 / 0.85 / nd / -0.13 / -0.25 / 1.01 | 0/18 |
| 13 | GFTLNDFGIS | VIYSDGRRTFYIDSVK | GRAAGTFDS | nd / 0.79 / 0.82 / 1.05 / 0.73 / nd | 0/18 |
| 14 | GFELNSYGIS | VIYSDGRRTFYDDSVK | GTLAGTFDS | -0.27 / -0.53 / -0.48 / -0.45 / -0.43 / -0.19 | 0/18 |
| 15 | GFTLNEYGIS | VIYSDGHRTFYSDSVK | GRAAGTFDS | 2.51 / 1.76 / 2.09 / 1.54 / 4.10 / nd | 0/18 |
| 16 | GFTLNDYGIS | VIYSDGRRTQYIDSVK | GRAAGTFMS | nd / nd / nd / nd / nd / nd | 0/18 |
| 17 | GFTLNDYGIS | VIYSDGRRTFYGDAVK | GRAAGTFMS | nd / nd / nd / 2.75 / nd / nd | 0/18 |
| 18 | GFTLNSYGIS | VIYSDGRRTFYGDSVK | GCIAGTFDQ | nd / nd / nd / 3.27 / 1.89 / 2.89 | 1/18 (3.39) |
| 19 | AFDLNSYGIS | VIYSDGRRTFYGDSVK | GRQAGTFDS | 1.01 / 0.91 / 1.38 / 2.03 / 1.09 / 1.39 | 0/18 |
| 20 | GFTLDSYGIS | VIYSDGRRTFYDDSVK | GRVAGTFDS | -0.14 / -0.22 / 0.19 / -0.28 / -0.07 / 0.04 | 2/18 (1.86) |
| 21 | GFTLNEYGIS | VIYSDGRRTFYHDSVK | GRAAGTFIS | nd / nd / nd / nd / nd / nd | 0/18 |
| 22 | GFTLNDYGIS | VIYSDGRRTMYDDSVK | GRAAGTFDS | 1.17 / 1.47 / 1.41 / 0.92 / 0.34 / 1.14 | 2/18 (3.31) |
| 23 | GFTLNSYGIS | VIYSDGRRTFYADSVK | GALAGTFDS | 0.59 / 0.35 / 0.13 / 0.20 / 0.20 / 0.57 | 0/18 |
| 24 | GFTLNDYGIS | VIYSDGRRTWYIDSVK | GRCAGTFDS | nd / nd / nd / nd / nd / nd | 0/18 |
| 25 | GFTLNDYGIS | VIYSDGRRTWYIDSVK | GNAAGTFDS | nd / nd / 0.47 / nd / nd / 1.56 | 0/18 |
| 26 | GFTINSYGIS | VIYSDGRRTAYSDSVK | GRAAGTFDS | 0.93 / 0.26 / 0.29 / 0.22 / -0.05 / 0.21 | 1/18 (1.45) |
| 27 | GFTLNSYGIS | VIYSDGMRTFYSDSVK | GKTAGTFDS | 1.22 / 1.20 / 0.33 / 1.25 / 0.40 / nd | 0/18 |
| 28 | GFTLNEYGIS | VIYSDGRRTFYIDSVK | GRAAGTFIS | nd / nd / nd / nd / nd / nd | 0/18 |
| 29 | GFDLNDYGIS | VIYSDGRRTWYGDSVK | GRAAGTFDS | 1.32 / 1.12 / 1.53 / 1.05 / 1.32 / 1.06 | 0/18 |
| 30 | GFELNDYGIS | VIYSDGRRTVYIDSVK | GRAAGTFDS | 1.24 / 1.11 / 1.42 / 3.00 / 2.04 / 1.73 | 0/18 |
| 31 | GFTLNSYGIS | VIYSDGRRTFYTDSVK | GQFAGKFDS | nd / nd / nd / nd / nd / nd | 0/18 |
| 32 | GFALNEYGIS | VIYSDGRRTFYKDSVK | GRAAGTFDS | 0.30 / 0.10 / 0.42 / -0.08 / 0.39 / 0.33 | 0/18 |
| 33 | GFSLNQYGIS | VIYSDGRRTFYGDSVK | GRAALTFDS | 0.80 / nd / 0.77 / nd / 0.61 / 1.02 | 0/18 |
| 34 | GFTLNSYGIS | VIYSDGKRTFYDDSVK | GLLAGTFDS | nd / -0.72 / nd / nd / nd / nd | 0/18 |

Picked from the list: the 5 lowest averages where every replicate gave a value.

| CDR-H1 | CDR-H2 | CDR-H3 | replicates, log10 nM | empty controls |
|---|---|---|---|---|
| GFELNSYGIS | VIYSDGRRTFYDDSVK | GTLAGTFDS | -0.27 / -0.53 / -0.48 / -0.45 / -0.43 / -0.19 | 0/18 |
| GFELNQYGIS | VIYSDGRRTFYSDSVK | GRLAGTFDT | -0.05 / -0.25 / -0.19 / -0.56 / -0.15 / -0.09 | 1/18 (2.17) |
| GFTLDSYGIS | VIYSDGRRTFYDDSVK | GRVAGTFDS | -0.14 / -0.22 / 0.19 / -0.28 / -0.07 / 0.04 | 2/18 (1.86) |
| GFALNEYGIS | VIYSDGRRTFYKDSVK | GRAAGTFDS | 0.30 / 0.10 / 0.42 / -0.08 / 0.39 / 0.33 | 0/18 |
| GFTINSYGIS | VIYSDGRRTAYSDSVK | GRAAGTFDS | 0.93 / 0.26 / 0.29 / 0.22 / -0.05 / 0.21 | 1/18 (1.45) |

Of ten entries with the parent sequence, four were seen in most replicates (averages 0.34 to 2.37), three in one and three in none, so single entries are noisy.
Nonspecific signal, from three strains lacking the peptide, appeared in 1% of pairings of all heavy chain designs, centred on 2.08 (5% of these signals below 0.84); values are not corrected for it. Also given: how often the same scFv was detected with the empty control strains, with their mean in brackets.
A sequence measured in both rounds can read differently, since the two assays cover different ranges.